The assay has as its target Human brain β-Secretase (Homo sapiens, UniProt P56817). Put plainly: MBP-C125 enzyme inhibition assay (ELISA detection of β-secretase cleavage of MBP-C125 substrate). The note with it: read-out: IC50 Grouping, pH 4.5, 37° C., 90 minutes. On the technique in general: In an ELISA, binding on a coated surface is turned into a signal by an enzyme label.

Chains of the proteins cited; added tags and fusions are not shown. Residues count along the entry.
UniProt P56817, 46-501 limits assumed: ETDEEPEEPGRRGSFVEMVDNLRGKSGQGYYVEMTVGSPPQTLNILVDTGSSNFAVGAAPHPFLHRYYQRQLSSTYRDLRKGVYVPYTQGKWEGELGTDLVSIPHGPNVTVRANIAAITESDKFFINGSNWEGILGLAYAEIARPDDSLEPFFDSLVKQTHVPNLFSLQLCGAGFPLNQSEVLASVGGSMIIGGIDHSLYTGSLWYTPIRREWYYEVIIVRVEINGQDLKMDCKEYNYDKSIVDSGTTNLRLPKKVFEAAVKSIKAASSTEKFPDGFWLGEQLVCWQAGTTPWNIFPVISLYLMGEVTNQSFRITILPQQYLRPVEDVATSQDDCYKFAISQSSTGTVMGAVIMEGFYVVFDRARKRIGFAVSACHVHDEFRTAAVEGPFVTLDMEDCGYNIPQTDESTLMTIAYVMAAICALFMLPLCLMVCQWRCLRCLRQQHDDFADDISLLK

As to `CC(C)C[C@H](NC(=O)C(O)c1cccc2ccccc12)[C@@H](O)CC(=O)N[C@H](C(=O)NCc1ccc(C(=O)O)cc1)C(C)C` (single isomer, unassigned), the IC50 (in general, the concentration that gives 50% inhibition) lay within 10 to 99 µM.

For the origin of these results see US7276484B2, “Dipeptide inhibitors of β-secretase” (Elan Pharmaceuticals, Inc., priority 1999, dated 2007).
